Measurements from US10507210B2, “Kinase inhibitor prodrug for the treatment of cancer” (Auckland UniServices Limited, priority 2014, dated 2019).

What was measured:
[1] = tested on: pAkt; experiment: FaDu target modulation Western blot, pAkt; settings: 1 h drug, EGF 50 ng/mL 15 min
[2] = tested on: FaDu cells; experiment: FaDu anti-proliferative assay, oxic vs anoxic 24 h exposure; type: cell-based, human; settings: 4 h anoxia of 24 h exposure
[3] = tested on: WT EGFR driven H125 xenografts; experiment: H125 NSCLC xenograft, single agents and cetuximab combinations; settings: for R % response rate (ORR): evaluable tumors with PR or CR
[4] = tested on: WT EGFR driven H125 xenografts; settings: mouse, in vivo
[5] = tested on: pERK; experiment: FaDu target modulation Western blot, pERK; settings: 1 h drug, EGF 50 ng/mL 15 min

Question: “Cetuximab: clinically approved EGFR inhibitor” was tested. Which “concentration failing to silence pAkt activity” value [1] did it give?
Answer: > 10 μM

Question: And the “anoxic IC50 higher than oxic” value [2]?
Answer: 4 fold

Question: What about the “PD, number of tumors (RECIST criteria)” value ([3]; evaluable tumors) of the same substance?
Answer: 4

Question: What about the “R % response rate (ORR)” value [3] of the same substance?
Answer: 17%

Question: And the “R % response rate (ORR)” value ([3]; listed as cetuximab)?
Answer: 17%

Question: What about the “Mean tumor volume on day 27 ± SEM” value ([3]; tarloxotinib 48 mg/kg qw, cetuximab 0.25 mg/mouse q3d, afatinib 6 mg/kg qd) of the same substance?
Answer: 874 ± 140 mm^3

Question: What about the “Day of average weight loss nadir” value [4] of the same substance?
Answer: [day 2]

Question: And the “concentration failing to silence pERK activity” value [5]?
Answer: > 10 μM
